Reference: US20250188044A1 (HARBIN MEDISAN PHARMACEUTICAL CO., LTD., priority 2021, published 2025)

Test: Pharmacokinetic evaluation in rats
Type: in vivo, SD rats

Cc1cc(Cn2ncn(-c3ccc(OC(F)(F)F)cc3)c2=O)cc(C)c1OC(C)(C)C(=O)O [Compound 61, 2-(2,6-Dimethyl-4-((5-oxo-4-(4-(trifluoromethoxy)phenyl)-4,5-dihydro-1H-1,2,4-triazo 1-1-yl)methyl)phenoxy)-2-methylpropionic acid]
pharmacokinetic properties (in words): good pharmacokinetic properties | Half-life T1/2 (intravenous injection, 2 mpk): 6.78 ± 0.60 h | Half-life T1/2 (oral administration, 10 mpk): 5.11 ± 0.31 h
